Test results: ChEMBL document CHEMBL5584290, “Novel flexible biphenyl PfDHFR inhibitors with improved antimalarial activity” (RSC Med Chem, 2024)

Sequences of proteins named here, by UniProt entry; tags and fusion partners are left off. A change or cut given only in a name is not applied to a line headed by its entry.
UniProt P13922: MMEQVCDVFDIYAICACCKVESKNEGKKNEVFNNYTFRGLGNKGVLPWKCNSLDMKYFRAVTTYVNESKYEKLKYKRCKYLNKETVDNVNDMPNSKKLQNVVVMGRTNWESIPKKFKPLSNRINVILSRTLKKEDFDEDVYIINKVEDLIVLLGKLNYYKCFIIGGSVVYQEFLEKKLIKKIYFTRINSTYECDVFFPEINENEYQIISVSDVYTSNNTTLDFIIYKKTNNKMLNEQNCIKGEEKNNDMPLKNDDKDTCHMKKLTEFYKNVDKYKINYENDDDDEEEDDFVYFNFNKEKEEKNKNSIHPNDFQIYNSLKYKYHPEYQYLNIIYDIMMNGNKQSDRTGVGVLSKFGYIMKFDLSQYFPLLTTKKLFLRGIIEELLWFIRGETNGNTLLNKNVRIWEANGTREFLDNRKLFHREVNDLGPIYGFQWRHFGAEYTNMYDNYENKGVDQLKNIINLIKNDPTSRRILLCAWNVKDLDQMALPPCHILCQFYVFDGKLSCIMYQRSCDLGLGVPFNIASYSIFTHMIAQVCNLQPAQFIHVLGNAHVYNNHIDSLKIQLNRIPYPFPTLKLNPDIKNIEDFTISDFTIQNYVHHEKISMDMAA

How the values were obtained:
in vitro [1] = details: rat, liver microsomes
physchem [2] = details: buffer, pH 7.4
in vitro [3] = details: human, liver microsomes
physchem [4] = details: buffer, pH 2
[5] = molecular target: Bifunctional dihydrofolate reductase-thymidylate synthase (Plasmodium falciparum K1, UniProt P13922); assay: Inhibition of wild type Plasmodium falciparum DHFR expressed in Escherichia coli BL21(DE3) pLysS cells assessed as inhibition constant using DHF as substrate measured for 80 sec in presence of NADPH
physchem [6] = details: octanol/phosphate buffer, pH 7.4
physchem [7] = details: buffer, pH 4.5
physchem [8] = details: buffer, pH 6.5
[9] = Cytotoxicity against African green monkey Vero cells assessed as reduction in cell viability incubated for 72 hrs by sulforhodamine B assay

Compound	microsomal CLint at 1 h (in vitro [1]) [µL/min/mg]	solubility kinetic at 2 h, 200 µM (physchem [2]) [µM]	microsomal CLint at 1 h (in vitro [3]) [µL/min/mg]	solubility kinetic at 2 h, 200 µM (physchem [4]) [µM]	Ki [5] [nM]	logD at 2 h, 100 µM (physchem [6])	solubility kinetic at 2 h, 200 µM (physchem [7]) [µM]	solubility kinetic at 2 h, 200 µM (physchem [8]) [µM]	IC50 at 72 h [9] [nM]
CCc1nc(N)nc(N)c1OCCCOc1ccc(-c2ccccc2)cc1	12.5	< 4	8.94	55.7 (≈ 20.3 µg/mL)	0.24	> 2.5	17.4 (≈ 6.36 µg/mL)	< 4	–
CCc1nc(N)nc(N)c1OCCCCOc1ccc(-c2ccc(C(=O)O)cc2)cc1.Cl	< 3	< 4	5.95	56.4	0.24	1.03	< 4	< 4	14300
CCOC(=O)c1ccc(-c2ccc(OCCCOc3c(N)nc(N)nc3CC)cc2)cc1	182	–	134	–	0.58	> 2.5	–	–	14200
CCc1nc(N)nc(N)c1OCCCCOc1ccc(-c2ccccc2)cc1.Cl	19.3	< 4	7.62	75.7	0.26	> 2.5	5.88	< 4	–
CCc1nc(N)nc(N)c1OCCCCOc1cccc(-c2ccccc2)c1	378	–	35.4	–	0.25	> 2.5	–	–	6540
CCc1nc(N)nc(N)c1OCCCOc1cccc(-c2ccccc2)c1.Cl	–	23.1	–	184	0.6	> 2.5	32.1	< 4	570
CCc1nc(N)nc(N)c1OCCCOc1ccc(-c2ccc(C(=O)O)cc2)cc1.Cl	3.63	< 4	6.27	108	0.16	0.97	< 4	< 4	33800

≈ marks a conversion by molar mass, not a printed value.
